These are literature values, as cited in patent US20080081827A1, “Use of a Pyrazole-Derived Compound that is an Antagonist for Cannabinoid CB1 Receptors, for Treating or Preventing Chronic Bronchitis or Chronic Obstructive Bronchopneumopathy” (SANOFI AVENTIS, priority 2004, published 2008).

Chains of the proteins cited; added tags and fusions are not shown.
UniProt P47746, whole entry: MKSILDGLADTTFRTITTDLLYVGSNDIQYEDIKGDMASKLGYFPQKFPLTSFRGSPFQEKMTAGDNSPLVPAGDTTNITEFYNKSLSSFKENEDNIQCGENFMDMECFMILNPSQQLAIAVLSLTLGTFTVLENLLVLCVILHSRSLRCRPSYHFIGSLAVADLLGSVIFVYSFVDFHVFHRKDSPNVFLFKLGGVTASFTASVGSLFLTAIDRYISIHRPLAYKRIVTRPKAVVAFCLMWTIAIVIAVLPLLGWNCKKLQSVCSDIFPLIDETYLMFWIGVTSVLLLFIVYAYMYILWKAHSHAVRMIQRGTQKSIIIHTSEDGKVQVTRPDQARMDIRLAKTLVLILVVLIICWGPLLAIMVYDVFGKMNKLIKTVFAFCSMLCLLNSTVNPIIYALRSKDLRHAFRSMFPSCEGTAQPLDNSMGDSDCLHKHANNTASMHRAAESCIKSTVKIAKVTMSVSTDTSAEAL

The target of this data set is cannabinoid CB1 receptors (Mus musculus, UniProt P47746). The conditions noted are these: mouse peritonitis model; cited from earlier work.

For `Cc1c(C(=O)NN2CCCCC2)nn(-c2ccc(Cl)cc2Cl)c1-c1ccc(Cl)cc1` [rimonabant, N-piperidino-5-(4-chlorophenyl)-1-(2,4-dichlorophenyl)-4-methylpyrazole-3-carboxamide], the “effect on the anti-inflammatory effect of the cannabinoid agonists HU210 and WIN 55212-2 on neutrophil migration” value was “inhibits the anti-inflammatory effect”.
